Source: IntAct's records for PubMed 20603015

B1: Fanconi anemia group D2 protein (Homo sapiens), Q9BXW9 (parent)
chain: MVSKRRLSKSEDKESLTEDASKTRKQPLSKKTKKSHIANEVEENDSIFVKLLKISGIILKTGESQNQLAVDQIAFQKKLFQTLRRHPSYPKIIEEFVSGLESYIEDEDSFRNCLLSCERLQDEEASMGASYSKSLIKLLLGIDILQPAIIKTLFEKLPEYFFENKNSDEINIPRLIVSQLKWLDRVVDGKDLTTKIMQLISIAPENLQHDIITSLPEILGDSQHADVGKELSDLLIENTSLTVPILDVLSSLRLDPNFLLKVRQLVMDKLSSIRLEDLPVIIKFILHSVTAMDTLEVISELREKLDLQHCVLPSRLQASQVKLKSKGRASSSGNQESSGQSCIILLFDVIKSAIRYEKTISEAWIKAIENTASVSEHKVFDLVMLFIIYSTNTQTKKYIDRVLRNKIRSGCIQEQLLQSTFSVHYLVLKDMCSSILSLAQSLLHSLDQSIISFGSLLYKYAFKFFDTYCQQEVVGALVTHICSGNEAEVDTALDVLLELVVLNPSAMMMNAVFVKGILDYLDNISPQQIRKLFYVLSTLAFSKQNEASSHIQDDMHLVIRKQLSSTVFKYKLIGIIGAVTMAGIMAADRSESPSLTQERANLSDEQCTQVTSLLQLVHSCSEQSPQASALYYDEFANLIQHEKLDPKALEWVGHTICNDFQDAFVVDSCVVPEGDFPFPVKALYGLEEYDTQDGIAINLLPLLFSQDFAKDGGPVTSQESGQKLVSPLCLAPYFRLLRLCVERQHNGNLEEIDGLLDCPIFLTDLEPGEKLESMSAKERSFMCSLIFLTLNWFREIVNAFCQETSPEMKGKVLTRLKHIVELQIILEKYLAVTPDYVPPLGNFDVETLDITPHTVTAISAKIRKKGKIERKQKTDGSKTSSSDTLSEEKNSECDPTPSHRGQLNKEFTGKEEKTSLLLHNSHAFFRELDIEVFSILHCGLVTKFILDTEMHTEATEVVQLGPPELLFLLEDLSQKLESMLTPPIARRVPFLKNKGSRNIGFSHLQQRSAQEIVHCVFQLLTPMCNHLENIHNYFQCLAAENHGVVDGPGVKVQEYHIMSSCYQRLLQIFHGLFAWSGFSQPENQNLLYSALHVLSSRLKQGEHSQPLEELLSQSVHYLQNFHQSIPSFQCALYLIRLLMVILEKSTASAQNKEKIASLARQFLCRVWPSGDKEKSNISNDQLHALLCIYLEHTESILKAIEEIAGVGVPELINSPKDASSSTFPTLTRHTFVVFFRVMMAELEKTVKKIEPGTAADSQQIHEEKLLYWNMAVRDFSILINLIKVFDSHPVLHVCLKYGRLFVEAFLKQCMPLLDFSFRKHREDVLSLLETFQLDTRLLHHLCGHSKIHQDTRLTQHVPLLKKTLELLVCRVKAMLTLNNCREAFWLGNLKNRDLQGEEIKSQNSQESTADESEDDMSSQASKSKATEDGEEDEVSAGEKEQDSDESYDDSD

Variants of: B1
Conditions: with fscn1_human FSCN1

Variant	effect of a mutation on the interaction
K561R	decreasing interaction
